Test system: U87EGFRvIII cells
Conditions: upon drug treatment
Experimental: A multiplex assay incorporating the glutamine uptake assay according to embodiments of the present invention was performed using a SCBC platform in U87 human glioblastoma cells having amplified epidermal growth factor receptor (EGFR) expression.
U87/EGFRV3 cells were provided by Prof. Paul S. Mischel (UCSD, San Diego, U.S.A.) and cultured in Dulbecco's modified eagle media (DMEM, Gibco, ThermoFisher Scientific, Grand Island, N.Y., U.S.A.) supplemented with 10% of fetal bovine serum (Thermo Fisher Scientific) and 100 U/mL of penicillin and streptomycin in a humidified 5% CO2 (v/v) incubator, at 37° C.
In order to better understand the integrated single cell metabolic/proteomic data, a simplified semi-quantitative metabolic model (FIG. 16A) was developed. The focus of this model includes the glycolysis pathway and the TCA cycle, which cover the major contributors of cellular energy generation. Glucose is used by cells for many tasks, but by combining the measurement of glucose uptake with measurements of those enzymes that process glucose for energy production and lactate production, an estimation may be made of the contributions of glucose to glycolysis and to the TCA cycle (FIGS. 16A-16B). It assumed that each glucose molecule consumed yields 8 ATP equivalents through glycolysis, and an additional 22 ATP equivalents through the TCA cycle. […]

SMILES: C#Cc1cccc(Nc2ncnc3cc(OCCOC)c(OCCOC)cc23)c1 [erlotinib]
- energy frustration index (EFI): increase
- redox frustration index (RFI): increase
